In patent publication US20060216238A1, “Compositions and methods for targeting or imaging a tissue in a vertebrate subject” (priority 2005, published 2006):

Test: CPMV injections in adult mice (tail vein), tissue cryosections
Assay type: in vivo, mouse
Experimental: CPMV injections in adult mice. CPMV-AlexaFluor555 conjugate and/or FITC-dextran (10 kDa, Molecular Probes) (50 μg-1 mg in 0.1-0.2 mL PBS) were injected in the tail vein of CD-1 mice and allowed to circulate for 5 min up to 72 hrs. Tissues were fixed in 4% paraformaldehyde for 4 hours and frozen in Tissue Tek OCT embedding medium (Sakura Finetek) before sectioning. The 20 μm cryosections were mounted with Vectashield mounting medium (Vector Laboratories) before examination under a fluorescent microscope (Zeiss Axioplan2). In the experiments that utilized PEG-coated fluorescent CPMV, adult mice were injected in the tail vein with 250 μg or 500 μg of either CPMV-FITC or CPMV-PEG-FITC, and tissues were collected after 1 hr.

Q: Which “depletion from the circulation” value (adult mice, tail vein) does the source give for FITC-dextran here?
A: gradually depleted from the circulation over 72 h

Q: And the “onset of accumulation in liver and spleen” value (after tail vein injection)?
A: almost immediately
